Test results reported in patent US20070078263A1, “BIARYL SUBSTITUTED HETEROCYCLE INHIBITORS OF LTA4H FOR TREATING INFLAMMATION” (deCODE Chemistry, Inc., priority 2005, published 2007).

Target: T1, human LTA4 hydrolase (Homo sapiens, UniProt P09960)
T1 construct: A human LTA4 hydrolase full-length cDNA clone (NM 000895) was purchased; His tag (6xHis of vector pDEST17); made in house; host or cells: Escherichia coli BL21-AI
T1 sequence (P09960 1-611): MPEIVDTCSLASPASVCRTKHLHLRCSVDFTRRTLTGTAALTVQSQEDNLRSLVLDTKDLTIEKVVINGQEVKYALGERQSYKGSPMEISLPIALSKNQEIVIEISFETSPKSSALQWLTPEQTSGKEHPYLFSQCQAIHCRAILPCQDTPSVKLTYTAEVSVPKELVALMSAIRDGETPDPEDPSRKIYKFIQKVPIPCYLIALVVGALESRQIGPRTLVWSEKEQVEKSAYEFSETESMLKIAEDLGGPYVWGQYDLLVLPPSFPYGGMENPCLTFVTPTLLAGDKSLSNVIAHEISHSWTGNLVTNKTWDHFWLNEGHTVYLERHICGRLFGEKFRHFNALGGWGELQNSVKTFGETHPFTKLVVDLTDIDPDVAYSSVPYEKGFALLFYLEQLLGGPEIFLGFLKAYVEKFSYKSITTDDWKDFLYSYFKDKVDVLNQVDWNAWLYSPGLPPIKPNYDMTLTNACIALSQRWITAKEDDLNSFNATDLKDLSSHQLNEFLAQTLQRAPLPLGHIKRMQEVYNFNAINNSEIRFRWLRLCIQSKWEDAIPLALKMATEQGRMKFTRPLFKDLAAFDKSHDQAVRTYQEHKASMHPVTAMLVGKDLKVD
Experiment: In vitro assay testing inhibitory activity against purified recombinant human LTA4 hydrolase (LTB4 formed, LC-MS/MS);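 note: 200 nM enzyme preincubated 10 min at room temperature with serial inhibitor dilutions in pH 8.0 Tris buffer with BSA and 10% DMSO, then 2 µM LTA4 added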
Assay type: biochemical
Conditions: recombinant human LTA4 hydrolase 200 nM, LTA4 2 μM; read-out: AvgIC50

(S)-2-[4-(2-thiophen-benzyl)-phenoxymethyl]-pyrrolidine hydrogen chloride salt [Example 117]
IC50: < 5 µM
